For experiment [1], the target named is T1, OR-S6 coexpressed with M3 (Mus musculus, UniProt Q9ERZ3).
T1 construct: The open reading frames were amplified using Phusion polymerase; expressed in transfected cells; host or cells: HEK293T
Kind of experiment: CRE-luciferase reporter assay of OR activation in HEK293T cells. The class given is cell-based. The method, then:
Given that GPCRs that form heteromeric interactions often show functional co-modulation, experiments were conducted to determine if altering M3 activity directly affects the odor-mediated activation of ORs. […] HEK293T cells Hana3A cells were maintained in minimal essential medium (MEM) containing 10% fetal bovine serum (M10) and penicillin-streptomycin and amphotericin solution. Lipofectamine 2000 (Invitrogen) was used for transfection following manufacturer's protocols. […] Briefly, cAMP response element (CRE)-luciferase (Stratagene) was used to measure OR activation. […] Cells were plated on poly-D-lysine-coated 96-well plates (NUNC) 2 days prior to assay. Cells were transfected with ORs in either Hana3A or HEK293T cell lines along with various combinations of RTP1S, Ric-8b, M3, CRE-luciferase, and pRL-SV40. 18-24 hours after transfection, cells were rinsed with 50 μl of CD293 (Invitrogen) and stimulated with 25 μl of odorant solution dissolved in CD293. Cells were incubated for 4 hours at 37° C. and 5% CO2 before luciferase assays. Protocols for measuring luciferase and Renilla luciferase activities were as described by the manufacturer (Promega). Normalized luciferase activity was calculated with the formula (LN−Lmin)/(Lmax−Lmin), where LN is the luminescence of firefly luciferase in response to the odorant, Lmin is the minimum luciferase value on a plate or set of plates, and Lmax is the maximum luciferase value on a plate or set of plates. The data was analyzed with Microsoft Excel and GraphPad Prism 5. Odorants and muscarinic agonists and antagonists were from Sigma except for darifenacin, which was purchased from Santa Cruz.
A general note: Reporter assays use an easily measured gene product as a stand-in for the process of interest.

The chains behind the UniProt entries cited, without tags or fusion partners.
UniProt Q9ERZ3, whole entry: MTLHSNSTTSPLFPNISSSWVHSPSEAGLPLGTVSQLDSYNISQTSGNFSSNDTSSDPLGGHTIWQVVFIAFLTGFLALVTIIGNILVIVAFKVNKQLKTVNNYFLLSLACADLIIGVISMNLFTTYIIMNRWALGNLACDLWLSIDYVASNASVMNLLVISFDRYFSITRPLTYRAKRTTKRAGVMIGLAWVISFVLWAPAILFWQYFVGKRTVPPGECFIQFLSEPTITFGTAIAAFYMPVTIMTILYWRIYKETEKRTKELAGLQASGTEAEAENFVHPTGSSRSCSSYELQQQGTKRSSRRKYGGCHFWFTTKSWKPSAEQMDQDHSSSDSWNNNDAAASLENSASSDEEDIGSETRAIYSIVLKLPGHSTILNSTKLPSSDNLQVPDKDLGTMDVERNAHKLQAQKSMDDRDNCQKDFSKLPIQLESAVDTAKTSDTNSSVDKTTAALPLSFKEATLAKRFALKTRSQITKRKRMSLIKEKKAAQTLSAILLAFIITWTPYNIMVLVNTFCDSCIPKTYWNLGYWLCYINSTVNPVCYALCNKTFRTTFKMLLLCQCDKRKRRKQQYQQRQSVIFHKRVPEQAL

The target of a further experiment is T2, M3 (Mus musculus, UniProt Q9ERZ3).
T2 construct: The open reading frames were amplified using Phusion polymerase; expressed in transfected cells; host or cells: HEK293T
The experiment in a line: Calcium imaging with HEK293T cells expressing M3. The class given is cell-based. The note with it: carbachol 10^−7M. An excerpt:
Since M3 potentiates OR signaling, the possibility that OR activation may also enhance M3 signaling was considered.

“Also recorded” adds a separate entry of the source.

Here are results for one compound from US10883143B2, “Compositions and methods for enhancing odorant receptor activity” (DUKE UNIVERSITY, priority 2009, dated 2021).

As to `C[N+](C)(C)CCOC(N)=O` [carbachol], the “reporter gene expression, compound alone” value in experiment [1] (10^−7M, no odor, HEK293T cells) is “did not induce the reporter gene expression”. In experiment [1] (HEK293T coexpressing M3 and OR-S6, carbachol 10^−7M, atropine 10^−6M), the “OR-S6 activation by nonanedioic acid on co-stimulation with muscarinic ligand” value is “further enhanced OR-S6 activation”. The “CRE-luciferase reporter response (cAMP levels) without odor, low carbachol concentration” value in experiment [1] (concentrations lower than 10^−6M, cells expressing M3, OR and RTP1S) is “not significantly alter cAMP levels”. For the same compound, in experiment [1] (more than 1 uM carbachol, only when OR, RTP1S and M3 coexpressed), the “CRE-luciferase reporter response without odor, high carbachol concentration” value is on record as “dramatic synergistic effects; also recorded: induced higher responses”. For the same compound, the calcium response entry on M3 is “robust calcium response; also recorded: calcium influx”.
